Measured values: patent US6737441B2, “Treatment of helicobacter with isothiocyanates” (priority 2000, dated 2004)
Values after ≈ are worked out from the molar mass of the structure shown.

What was measured:
[1] = test system: amoxicillin/clarithromycin/metronidazole - susceptible strains of Helicobacter pylori; test: Bacteriostatic activity (MIC) against susceptible strains; assay type: cell-based
[2] = test system: clarithromycin and/or metronidazole - intermediate or resistant strains of Helicobacter pylori; test: Bacteriostatic activity (MIC) against intermediate or resistant strains; assay type: cell-based

CC1(C)S[C@@H]2[C@H](NC(=O)[C@H](N)c3ccc(O)cc3)C(=O)N2[C@H]1C(=O)O [Amoxicillin]
MIC [1]: 0.125 µg/mL (≈ 0.342 µM)
MIC [2]: 0.125 µg/mL (≈ 0.342 µM)
